Target: human Keap1 Kelch (Homo sapiens, UniProt Q14145)
Test: Fluorescence polarization (FP) competition assay with Cy5-Nrf2 peptide probe
Details: for Ki: read-out: Ki (FP), mean, ≥3 individual measurements, text and figures

By UniProt entry, the sequences of proteins in these tests, tags left out. Residues count along the entry.
UniProt Q14145, 321-609 limits assumed: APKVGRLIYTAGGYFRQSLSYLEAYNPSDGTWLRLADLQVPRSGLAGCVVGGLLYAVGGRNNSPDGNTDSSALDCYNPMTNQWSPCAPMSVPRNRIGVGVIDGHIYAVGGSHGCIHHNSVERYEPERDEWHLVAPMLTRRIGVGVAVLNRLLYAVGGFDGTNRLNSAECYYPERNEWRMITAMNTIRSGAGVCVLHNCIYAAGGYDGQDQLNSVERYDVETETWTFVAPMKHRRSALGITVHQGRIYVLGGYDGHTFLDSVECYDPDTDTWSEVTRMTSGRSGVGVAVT

Row | fold difference in affinity (FP) between the enantiomers of 24 (Peak 1 vs Peak 2 after chiral HPLC separation) [fold] | Ki [nM] | SMILES
1 | 14 | 7.9 | Cc1cc2c(cc1[C@@H](CC(=O)O)c1ccc3ccc(OCC(=O)NC4CCCCCC4)cc3c1)OCO2 (single isomer, unassigned)
2 | – | 114 | Cc1cc2c(cc1[C@H](CC(=O)O)c1ccc3ccc(OCC(=O)NC4CCCCCC4)cc3c1)OCO2 (single isomer, unassigned)
